{"sequences": {"note": "Chains of the proteins cited; added tags and fusions are not shown. Lines headed by an entry give the natural chain unless they say otherwise; changes in a name come on top.", "UniProt P28887": "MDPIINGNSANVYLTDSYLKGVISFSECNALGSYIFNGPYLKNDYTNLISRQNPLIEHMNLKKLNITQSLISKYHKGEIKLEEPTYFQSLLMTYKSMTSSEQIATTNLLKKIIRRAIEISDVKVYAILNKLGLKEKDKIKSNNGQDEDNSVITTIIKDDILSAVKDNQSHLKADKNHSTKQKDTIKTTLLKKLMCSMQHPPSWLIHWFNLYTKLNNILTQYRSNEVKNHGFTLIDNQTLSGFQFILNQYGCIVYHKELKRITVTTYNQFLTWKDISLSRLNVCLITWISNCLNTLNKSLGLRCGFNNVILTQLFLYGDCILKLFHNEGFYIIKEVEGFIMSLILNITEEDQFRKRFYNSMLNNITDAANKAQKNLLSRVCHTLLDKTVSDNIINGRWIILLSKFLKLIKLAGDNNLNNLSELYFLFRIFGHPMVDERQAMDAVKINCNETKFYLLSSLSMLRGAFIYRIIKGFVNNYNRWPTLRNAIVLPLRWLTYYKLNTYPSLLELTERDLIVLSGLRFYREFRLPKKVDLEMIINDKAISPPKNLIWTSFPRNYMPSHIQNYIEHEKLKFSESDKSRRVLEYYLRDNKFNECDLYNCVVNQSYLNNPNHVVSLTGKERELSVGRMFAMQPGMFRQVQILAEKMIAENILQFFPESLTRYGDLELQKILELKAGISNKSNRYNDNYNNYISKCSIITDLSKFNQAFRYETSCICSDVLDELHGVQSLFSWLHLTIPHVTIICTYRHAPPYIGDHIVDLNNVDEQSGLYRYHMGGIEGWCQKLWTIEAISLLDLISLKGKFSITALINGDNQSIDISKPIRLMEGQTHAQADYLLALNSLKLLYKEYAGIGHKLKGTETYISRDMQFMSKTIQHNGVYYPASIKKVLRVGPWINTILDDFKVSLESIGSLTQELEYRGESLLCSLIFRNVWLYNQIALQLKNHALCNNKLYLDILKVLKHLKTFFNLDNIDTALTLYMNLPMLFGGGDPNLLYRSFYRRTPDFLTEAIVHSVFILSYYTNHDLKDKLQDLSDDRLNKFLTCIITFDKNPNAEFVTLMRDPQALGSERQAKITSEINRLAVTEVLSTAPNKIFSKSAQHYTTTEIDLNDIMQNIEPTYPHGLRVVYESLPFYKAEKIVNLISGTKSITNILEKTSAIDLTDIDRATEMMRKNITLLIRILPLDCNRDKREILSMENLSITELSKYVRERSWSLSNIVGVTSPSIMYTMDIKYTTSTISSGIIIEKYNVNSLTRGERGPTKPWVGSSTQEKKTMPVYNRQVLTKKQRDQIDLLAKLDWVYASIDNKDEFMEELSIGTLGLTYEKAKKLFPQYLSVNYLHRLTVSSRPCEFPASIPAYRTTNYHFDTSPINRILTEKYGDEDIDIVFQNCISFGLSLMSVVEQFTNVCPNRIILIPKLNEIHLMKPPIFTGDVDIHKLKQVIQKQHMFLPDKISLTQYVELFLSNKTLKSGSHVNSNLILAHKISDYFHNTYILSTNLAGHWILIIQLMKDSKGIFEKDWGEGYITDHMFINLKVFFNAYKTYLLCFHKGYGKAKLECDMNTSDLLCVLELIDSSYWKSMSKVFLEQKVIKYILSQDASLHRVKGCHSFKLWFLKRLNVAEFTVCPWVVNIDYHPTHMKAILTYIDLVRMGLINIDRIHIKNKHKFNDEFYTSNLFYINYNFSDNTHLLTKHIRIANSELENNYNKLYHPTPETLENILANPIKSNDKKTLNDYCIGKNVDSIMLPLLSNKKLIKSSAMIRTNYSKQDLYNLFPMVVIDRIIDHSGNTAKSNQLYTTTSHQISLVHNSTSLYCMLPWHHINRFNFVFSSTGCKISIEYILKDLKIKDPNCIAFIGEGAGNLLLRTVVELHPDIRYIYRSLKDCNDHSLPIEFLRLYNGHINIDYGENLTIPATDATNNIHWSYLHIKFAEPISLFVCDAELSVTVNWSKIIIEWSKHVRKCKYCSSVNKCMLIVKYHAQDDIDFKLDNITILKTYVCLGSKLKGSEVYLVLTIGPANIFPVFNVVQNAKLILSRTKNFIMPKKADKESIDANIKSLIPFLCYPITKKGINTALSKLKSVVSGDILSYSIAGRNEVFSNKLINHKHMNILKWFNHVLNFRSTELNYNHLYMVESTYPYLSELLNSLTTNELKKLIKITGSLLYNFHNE"}, "source": "paper PMC12282092", "about": "“Discovery of a non-nucleoside inhibitor that binds to a novel site in the palm domain of the respiratory syncytial virus RNA-dependent RNA polymerase” (Journal of Virology, 2025)", "key": {"RSV L+P [1]": {"biological_target": "T1, RSV L+P (Human respiratory syncytial virus A, UniProt P28887)", "T1 construct": "Biochemical activity of 1 and 22 against full-length RSV L+P; Twin-Strep-tag (N); made in house; host or cells: Sf9 insect cells (baculovirus, pFastBac Dual)", "test": "SPR assay", "format": "binding", "conditions": "read-out: SPR ka"}, "RSV L+P [2]": {"biological_target": "T1, RSV L+P", "test": "Single-nucleotide incorporation (primer extension) assays", "format": "biochemical", "conditions": "50 µM 22, +1 and +3 positions", "procedure": "A mixture of 0.2 µM RSV L+P, 0.2 µM RNA template (TrC-14), and 400 µM primer (sequences indicated in figure) was incubated in buffer consisting of 50 mM Tris pH 7.4, 2 mM DTT, and 6 mM MgCl2 with either 50 µM compound 22 or vehicle (5% DMSO) at 30°C for 10 min ([36]). Reactions were initiated by the addition of 100 nM [α-^32P]NTP (3,000 Ci/mmol) tracer and run for an additional 30 min before quenching with an equal volume of gel loading buffer (90% formamide, 50 mM EDTA, 0.05% Xylene Cyanol and Bromophenol Blue). Gel images were obtained and processed as described for the de novo assay, and data were normalized to untreated controls to determine percent inhibition."}}}
{"smiles": "CN1C(=O)C2(CCN(c3cnc(C#N)c(Cl)c3)CC2)c2cc(Br)ccc21", "note": "[Compound 22, 5-(5-bromo-1-methyl-2-oxospiro[indoline-3,4'-piperidin]-1'-yl)-3-chloropicolinonitrile]", "values": [{"measurement": "kon", "setting": "RSV L+P [1]", "result": 128000, "unit": "M⁻¹ s⁻¹"}, {"measurement": "inhibition of primer extension, Le-11 template", "setting": "RSV L+P [2]", "result": "inhibited primer extension"}]}
